Patent US9481646B2, “Low calcemic, highly antiproliferative, analogs of calcitriol” (The Johns Hopkins University, priority 2007, dated 2016)

Legend:
[1] = in vivo calciuric activity, calcium levels in rat urine; settings: relative activity (A = 1)
[2] = tested on: human CYP24; settings: HPK1a-ras cells, 8 hours, relative to calcitriol = 100
[3] = tested on: murine keratinocytes; test: antiproliferative activity in murine keratinocytes (standard in vitro protocol); type: cell-based

Row | SMILES | Calciuria Activity Compared to 1 [1] | Relative Fold Induction of CYP24 by 100 nM of Compound [2] [%] | antiproliferative activity relative to 1a [3] | times more antiproliferative than the natural hormone A [3]
1 | C=C1/C(=C\C=C2/CCC[C@]3(C)[C@@H]([C@H](C)COCC(=C)C(C)(C)C)CC[C@@H]23)C[C@@H](O)C[C@@H]1O [Analog 1a] | <0.02 | – | – | –
2 | C=C1/C(=C\C=C2/CCC[C@]3(C)[C@@H]([C@H](C)COCC(=C)C4(C)CCCCC4)CC[C@@H]23)C[C@@H](O)C[C@@H]1O [Analog 1c] | <0.02 | – | – | –
3 | C=C1/C(=C\C=C2/CCC[C@]3(C)[C@@H]([C@H](C)COCC4=CCCCC4(C)C)CC[C@@H]23)C[C@@H](O)C[C@@H]1O [Analog 1d] | – | 73.8 | – | –
4 | C=C1/C(=C\C=C2/CCC[C@]3(C)[C@@H]([C@H](C)COCC#CC(C)(C)C)CC[C@@H]23)C[C@@H](O)C[C@@H]1O [Analog 1f] | <0.02 | – | approximately ten times more antiproliferative than 1a | approximately 40 times
5 | C=C1/C(=C\C=C2/CCC[C@]3(C)[C@@H]([C@H](C)COCc4ccccc4)CC[C@@H]23)C[C@@H](O)C[C@@H]1O [Analog 1h] | <0.02 | – | – | –
